Data published in ChEMBL document CHEMBL1671644, “Inhibition of human immunodeficiency virus type 1 infection by the candidate microbicide dapivirine, a nonnucleoside reverse transcriptase inhibitor” (Antimicrob Agents Chemother, 2009).

System: Human immunodeficiency virus 1
Test: Antiviral activity against HIV-1 subtype CRF01_AE V022820 infected in human MT4 cells assessed as inhibition of viral replication relative to HIV-1 3B
Assay type: functional
In short: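 MT-4 cells (3 x 10^4/well) infected with site-directed mutants or recombinant clinical isolates (200 TCID50/well) with drug, cultured 3 to 5 days. Viability read by MTT colorimetric antivirogram assay. IC50 by nonlinear regression; fold change = IC50 for the test isolate / IC50 for wild-type HIV-1 IIIB tested in parallel (mean or median).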

CC(C)Nc1cccnc1N1CCN(C(=O)c2cc3cc(NS(C)(=O)=O)ccc3[nH]2)CC1 [DELAVIRDINE]
Ratio IC50: 3.3
